Laboratory results from PubChem BioAssay AID583 (Sanford-Burnham Center for Chemical Genomics, 2007).
The entries are a selection whose mix differs from that of the whole data set. Activity calls are given as the source filed them. Rule as the data show it: active = displacement above about 50%; inactive = the rest.

The chains behind the UniProt entries cited, without tags or fusion partners.
UniProt P0DMV8, whole entry, looked up: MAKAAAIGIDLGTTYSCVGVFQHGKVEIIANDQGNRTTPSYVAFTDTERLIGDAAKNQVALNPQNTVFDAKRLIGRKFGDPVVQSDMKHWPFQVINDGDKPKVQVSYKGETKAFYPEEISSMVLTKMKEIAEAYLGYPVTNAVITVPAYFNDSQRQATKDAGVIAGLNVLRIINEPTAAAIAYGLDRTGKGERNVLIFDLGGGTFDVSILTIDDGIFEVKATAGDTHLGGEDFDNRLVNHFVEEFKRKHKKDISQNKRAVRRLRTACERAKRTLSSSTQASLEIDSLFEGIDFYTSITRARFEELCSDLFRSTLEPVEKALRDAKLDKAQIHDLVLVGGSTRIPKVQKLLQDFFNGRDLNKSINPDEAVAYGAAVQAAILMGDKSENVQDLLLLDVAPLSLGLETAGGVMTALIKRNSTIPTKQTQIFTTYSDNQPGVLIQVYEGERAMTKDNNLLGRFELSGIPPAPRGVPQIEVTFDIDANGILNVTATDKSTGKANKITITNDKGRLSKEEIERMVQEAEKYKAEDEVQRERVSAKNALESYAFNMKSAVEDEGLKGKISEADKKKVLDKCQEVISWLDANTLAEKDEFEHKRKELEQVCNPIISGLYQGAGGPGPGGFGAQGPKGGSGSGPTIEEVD

biological target: Heat shock 70 kDa protein 1A (Homo sapiens) (UniProt P0DMV8); experiment: Hsp70 inhibitors, probe displacement, primary screen, biochemical, fluorescence polarization (AID 583); details: mP, at 20 µM, active compounds read high;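 also: plate controls were vehicle for no effect and reference ligand for full effect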

| Structure (SMILES) | displacement |
| --- | --- |
| Cc1c2non([O-])c-2c(C)[n+](=O)[n+]1[O-] | inactive: -3.3% |
| Oc1ccccc1CNc1ccccn1 | inactive: 4.1% |
| CCCCOP(=O)(OCCCC)SC | inactive: -2.6% |
| CCOP(=O)(Nc1ccccc1)OCC | inactive: -2.6% |
| CC1CCN(C(=O)Oc2c(Cl)cc(Cl)c3cccnc23)CC1 | inactive: 5.2% |
| O=[N+]([O-])c1cccc2n[nH]nc12 | inactive: 0.8% |
| CCc1nc2c(n1)c1c(non1O)c1c2no[n+]1[O-] | inactive: 0% |
| O=P(Nc1nccs1)(c1ccccc1)c1ccccc1 | inactive: -8% |
| c1nnnn1CCn1cnnn1 | inactive: -1.9% |
| CCOC(=O)NC(Sc1nc2ccccc2o1)C(Cl)(Cl)Cl (configuration not stated) | inactive: 3.9% |
| O=C(OC1CN2CCC1CC2)c1cccc(Cl)c1 (configuration not stated) | inactive: -3.8% |
| CCCCSP(=O)(OCC(C)C)OCC(C)C | inactive: 6.4% |
| O=CNC(Sc1nc2ccccc2o1)C(Cl)(Cl)Cl (configuration not stated) | inactive: 2% |
| COC(=O)c1cc2c(s1)N=C(c1ccccc1)N(C)P2(=O)N1CCOCC1 (configuration not stated) | inactive: -2% |
| COC(=O)NC(Sc1ccc(Cl)cc1)C(Cl)Cl (configuration not stated) | inactive: 5.7% |
| O=P1(Nc2nc3ccc(Cl)cc3s2)COc2ccccc2O1 (configuration not stated) | inactive: 4.4% |
| Cc1cccc(OCC(=O)OC2CN3CCC2CC3)c1 (configuration not stated) | inactive: 1.7% |
| CCOP1(=S)c2c(C)nn(CCC#N)c2N=C(c2ccc(F)cc2)N1C (configuration not stated) | inactive: 0.8% |
| O=P(Nc1nccs1)(c1ccccc1)c1nc2ccccc2s1 (configuration not stated) | inactive: -2.3% |

| Structure (SMILES) | displacement |
| --- | --- |
| CCOP1(=S)c2c(C)nn(CCC#N)c2N=C(c2ccccc2F)N1C (configuration not stated) | inactive: 5.2% |
| O=P1(Nc2ncccn2)COc2ccccc2OC1 | inactive: 1.9% |
| Cc1ccc(OCC(=O)OC2CN3CCC2CC3)cc1 (configuration not stated) | inactive: 4.4% |
| O=P1(Nc2ccc(Br)cn2)COc2ccccc2OC1 | inactive: 0.2% |
| Cc1ccc(SC(NC(=O)c2ccccc2)C(Cl)Cl)cc1 (configuration not stated) | inactive: -4.8% |
| Cc1nn(-c2ccccc2)c2c1P(=O)(N1CCOCC1)N(C)C(c1ccccc1)=N2 (configuration not stated) | inactive: 6.1% |
| CC1(CBr)Cn2c(nc3ccccc3c2=O)S1 (configuration not stated) | inactive: -1.6% |
| O=P1(Nc2ccccn2)COc2ccccc2OC1 | inactive: 5% |
| Clc1n[nH]nc1-c1nn[nH][15n]1 | inactive: 16.5% |
| Cc1cc(C)nc(SC(NC(=O)c2ccccc2)C(Cl)(Cl)Cl)n1 (configuration not stated) | inactive: 2.4% |
| CCC(C)N(CC(C)C)C(=S)SC(NC(C)=O)C(Cl)(Cl)Cl (configuration not stated) | inactive: 3.1% |
| COC(=O)c1ccc(OP(=O)(Oc2ccc(Cl)cc2C)SCC(C)C)cc1 (configuration not stated) | inactive: 0.2% |
| COP1(=S)c2c(C)nn(CCC#N)c2N=C(c2ccc(F)cc2)N1C (configuration not stated) | inactive: -0.5% |
| O=C(COc1ccccc1)OC1CN2CCC1CC2 (configuration not stated) | inactive: 1.6% |
| ClCCSc1nnc(-c2cccnc2)o1 | inactive: 12.1% |
| O=C(NC(SC1=NCCS1)C(Cl)(Cl)Cl)c1ccc(I)cc1 (configuration not stated) | inactive: -5.5% |
| O=C(CF)NC(Sc1ccc(Cl)cc1)C(Cl)(Cl)Cl (configuration not stated) | inactive: -8.8% |
| O=C(OC1CN2CCC1CC2)C12CC3CC(CC(C3)C1)C2 (configuration not stated) | inactive: -3.7% |
